Experimental data reported in patent US10844092B2, “Peptide for promoting regeneration of dentin or dental pulp tissue” (HysensBio Co., Ltd., priority 2016, dated 2020).

Experiments:
Format in all cases: in vivo, immunocompromised mice
[1] = system: BSP; assay: Immunostaining of transplanted tissues for BSP
Method: (§1) To evaluate expression levels of DSP which is an odontoblast-specific differentiation marker gene and BSP which is an osteoblast-specific differentiation marker gene in each of the tissues removed in Example 3-1, immunostaining analysis was performed.
(§2) Briefly, the removed tissues were fixed in 4% paraformaldehyde, decalcified in 10% EDTA (pH 7.4), embedded in paraffin, and then immunostained with anti-DSP and anti-BSP antibodies at a dilution of 1:150 as primary antibodies, and reacted with biotin-labeled goat anti-rabbit IgG (Vector Labs) as secondary antibodies to determine DSP and BSP levels (FIG. 4). In this regard, the tissue transplanted with an implant including none of the peptides of the present invention was used as a control group.
(§3) Immunostaining analysis was performed in the same manner as in Example 3-3, except that the tissues removed in Example 3-4 were used instead of the tissues removed in Example 3-1 (FIG. 7). In this regard, a tissue transplanted with an implant including none of the peptides of the present invention was used as a control group.

[2] = system: DSP; assay: Immunostaining of transplanted tissues for DSP
Method: as §1, §2, §3

[3] = system: dentin/dental pulp-like tissues; assay: Morphological (H-E) analysis of implants with dental pulp cells and HA/TCP transplanted subcutaneously
Method: 100 mg of a dentin substitute was added to 2×10^6 of dental pulp cells, and mixed with 0.5% fibrin gel to prepare an implant. In this regard, hydroxy apatite/tricalcium phosphate (HA/TCP) ceramic powder (Zimmer, USA) was used as the dentin substitute, and the fibrin gel was prepared by including 10 μg of the peptide of Group 11 (SEQ ID NO: 87), the peptide of Group 12 (SEQ ID NO: 96), or 2 μg of BMP-2. The prepared implant was transplanted into the subcutaneous tissues of immunocompromised mice (NIH-bg-nu-xid; Harlan Laboratories, Indianapolis, Ind.), and the mice were raised for 6 weeks. Then, dentin/dental pulp-like tissues formed from the implants were removed. The removed tissues were fixed in 4% paraformaldehyde, decalcified in 10% EDTA (pH 7.4), embedded in paraffin, and stained with hematoxylin-eosin (H-E) (Vector Labs) to evaluate levels of the dentin/dental pulp-like tissues (FIG. 2). In this regard, an implant including none of the peptides of the present invention was used as a control group.
The levels of dentin/dental pulp-like tissues were evaluated in the same manner as in Example 3-1, except implant-transplanted mice were raised for 12 weeks (FIG. 5).

[4] = system: odontoblasts; assay: Scanning electron microscopy of transplanted tissue, differentiation into odontoblasts; conditions: 12 weeks after transplantation, FIG. 8
Method: A scanning electron microscope was used to examine whether the dental pulp cells included in the implant were differentiated into odontoblasts in the tissues removed in Example 3-4 (FIG. 8). In this regard, a tissue transplanted with an implant including none of the peptides of the present invention was used as a control group.
Briefly, each tissue was immersed and fixed in 2.5% glutaraldehyde/0.1 M cacodylate buffer for 30 minutes, and each fixed tissue was immersed and reacted in a cacodylate buffer containing 1% osmium tetroxide for 1 hour. After dehydration of the tissues in ethanol and drying, the dried tissues were coated with gold, and visualized under a scanning electron microscope (S-4700, HITACHI, Tokyo, Japan).

[5] = 6 weeks after transplantation, FIG. 4
[6] = 12 weeks after transplantation, FIG. 7

Substance: rhBMP-2: component of the comparative implant with dental pulp cells and HA/TCP, 2 μg in fibrin gel
- BSP expression level [1, 5]: relatively very high BSP expression level
- BSP expression level [1, 6]: relatively very high BSP expression level
- DSP expression level [2, 5]: little DSP expression
- DSP expression level [2, 6]: low DSP expression levels
- tissue generated at periphery of HA/TCP particles (H-E) ([3]; 6 weeks after transplantation, 10 μg peptide or 2 μg BMP-2 in fibrin gel, FIG. 2): generation of bone-like mineralized tissue and bone marrow-like tissue was observed
- tissue generated at periphery of HA/TCP particles (H-E) ([3]; 12 weeks after transplantation, FIG. 5): generation of the bone-like tissue and bone marrow-like tissue having cells entrapped inside the matrix was observed
- cells observed at the formed hard tissue (scanning electron microscope) [4]: cuboidal cells attached to the surface of the formed hard tissue were observed
